System: immature female mice
Test: In vivo ovulation induction assay for LH bioactivity in immature female mice
Design: species or system mouse
Conditions: 20 IU/kg s.c., FSH-primed immature female mice, 24 h after administration
Description: In female immature mice which are stimulated with follicle stimulating hormone (FSH), ovulation can be induced by luteininzing hormone (LH) or by human chorionic gonadotrophin (hCG) which binds to the same LH-receptor on the Graafian follicles. Binding to the LH-receptor initiates a biochemical cascade, which eventually results in follicular rupture and extrusion of a mature oocyte. To measure the in vivo activity of LH-agonistic compounds, inunature 20 days old mice (B6D2F1 stain, Broekman Institute, the Netherlands) are primed with unary FSH (Humegon; 12.5 IU/l, 0.1 ml s.c.) to initiate folliculogenesis. Forty-eight hours after FSH treatment test compound, reference compound or vehicle (10% cremophor solution) are administered to the animals. Test compounds (50 mg/kg in 0.1 ml) and vehicle (0.1 ml) are administered p.o., reference compounds (500 IU/kg hCG in 0.1 ml) are injected s.c. As a reference, hCG in-house standards are used which are calibrated against International Reference preparations of human hCG provided by the National Institute for Biological Standards and Controls (NMSC, London, UK). Twenty-four hours after administration of test compound, reference compound or vehicle, animals are killed by cervical dislocation. The oviducts are dissected and collected in 0.9% NaCl. […]

For “Urinary hCG: human chorionic gonadotrophin, reference compound; in-house standards calibrated against International Reference preparations of human hCG”, the “Mouse in vivo ovulation induction (% ovulating animals)” value was 100%.

Source: patent US6569863B1, “Bicyclic heteroamatic compounds useful as LH agonists” (Akzo Nobel NV, priority 1999, dated 2003)
